{
  "source": "patent US9492315B2",
  "about": "“Implantable therapeutic device” (ForSight Vision4, Inc., priority 2010, dated 2016)",
  "key": {"[1]": {"experiment": "Diffusion coefficient in water (measured BSA value scaled by viscosity and molecular weight)", "type": "physicochemical", "conditions": "37 C, estimated from the BSA value at 20 C by viscosity and MW scaling", "from_the_text": "If the reservoir solution is aqueous or has a viscosity similar to water, the value for the diffusion coefficient of the therapeutic agent (TA) in water at the temperature of interest may be used. […] (Molokhia et al, Exp Eye Res 2008): DTA,37C=DBSA,20C(η20C/η37C)(MWBSA/MWTA)^1/3 where MW refers to the molecular weight of either BSA or the test compound and η is the viscosity of water.\nSmall molecules have a diffusion coefficient similar to fluorescein (MW=330, D=4.8 to 6 e-6 cm^2/s from Stay, M S et al. Pharm Res 2003, 20(1), pp. 96-102). For example, the small molecule may comprise a glucocorticoid such as triamcinolone acetonide having a molecular weight of about 435."}, "[2]": {"conditions": "model proteins of therapeutic interest; cited from earlier work"}, "[3]": {"conditions": "in water at 20 C, measured value (Molokhia et al, Exp Eye Res 2008); cited from earlier work"}},
  "note": "Where two headings read alike, the source gives them in different places.",
  "data": [
    {"substance": "bovine serum albumin [BSA]", "values": [
      {"measurement": "Diff Coeff", "setting": "[1]", "value": "9.1e-7", "unit": "cm^2/s"},
      {"measurement": "diameter", "setting": "[2]", "value": 7.2, "unit": "nm"},
      {"measurement": "Diff Coeff", "setting": "[3]", "value": "6.1e-7", "unit": "cm^2/s"}
    ]}
  ]
}
